Antibody variant affinities, Ab-91 heavy chain, assay 2

Values reported by Engelhart et al. 2022, doi:10.1038/s41597-022-01779-4 (FLAb copy).

Target peptide (SARS-CoV-2 spike, HR2 region): PDVDLGDISGINAS

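Phage display of a naive human antibody library on the peptide gave the parent. Library AAYL51 holds single substitutions and randomly drawn double and triple substitutions in the CDRs. The scFvs were displayed on barcoded MATa yeast, the peptide on MATalpha yeast. Binding brings cells together so that they mate, and sequencing counts the barcode pairs among the diploids. Scores were corrected for input abundance and mapped to Kd with protein pairs of known affinity run in the same pool. Mating was done three times.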

Each scFv is VL, the linker GGGGSGGGGSGGGGS, VH, as in the parent Ab-91, and differs from it in the CDRs of the heavy chain only.
VL: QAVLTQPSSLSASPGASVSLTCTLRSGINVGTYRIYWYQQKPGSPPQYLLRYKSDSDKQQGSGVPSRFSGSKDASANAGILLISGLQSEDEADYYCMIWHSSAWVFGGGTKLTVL
VH: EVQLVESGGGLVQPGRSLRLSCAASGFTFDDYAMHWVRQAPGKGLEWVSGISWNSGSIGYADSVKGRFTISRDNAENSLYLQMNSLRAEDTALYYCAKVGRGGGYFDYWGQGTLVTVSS

Changes read parent residue, position, new residue, counted from the first residue of the VH shown.
Affinities are written as log10 Kd with Kd in nM; a lower number is a better binder.
Averages over replicates are reported, and they cover detected replicates only.
"nd" means that the variant was in the library but no mating with the target was seen in that replicate; the authors take this as a sign of poor binding, and no number exists.
Nonspecific signal, from three strains lacking the peptide, appeared in 21% of pairings of library AAYL51, centred on 4.54 (5% of these signals below 3.26); values are not corrected for it. The control count says in how many pairings with the empty strains this scFv gave a signal.

Variant M34A+A61E+R101Y showed nd, nd, nd (controls 0 of 9).
Variant F29P+V64F+Y108W showed 0.94, 1.28, 0.75 (mean 0.99; controls 0 of 9).
Variant G59E+F106D+Y108M showed 5.59, 6.01, nd (mean 5.80; controls 7 of 9).
Variant G59P+V99Q+F106W showed nd, nd, nd (controls 0 of 9).
Variant H35T+R101W+Y108K showed 4.35, 4.45, nd (mean 4.40; controls 8 of 9).
Variant D30T+G50Q showed nd, nd, nd (controls 2 of 9).
Variant Y32W+G50V+S63C showed 3.76, nd, nd (controls 1 of 9).
Variant N54V+A61P+G103E showed nd, nd, nd (controls 0 of 9).
Variant I51F+K65N+D107Q showed nd, nd, nd (controls 1 of 9).
Variant R101G+F106W+D107A showed 1.20, 1.26, 0.85 (mean 1.10; controls 3 of 9).
Variant D31W+S57M+V99T showed 2.85, 2.86, 1.77 (mean 2.49; controls 1 of 9).
Variant A33W+D62G showed 4.76, nd, 4.83 (mean 4.79; controls 3 of 9).
Variant Y32M+S63K+Y108W showed 3.47, 3.42, 3.19 (mean 3.36; controls 6 of 9).
Variant F27R+D62G+K65G showed 6.42, 5.40, 5.33 (mean 5.72; controls 5 of 9).
Variant F29I+D31Y+G102R showed 4.09, nd, nd (controls 0 of 9).
Variant D30I+V99Q+F106E showed nd, nd, nd (controls 0 of 9).
Variant S55F+Y105L showed 4.61, nd, nd (controls 0 of 9).
Variant A33Q+V99W+Y108D showed nd, nd, nd (controls 2 of 9).
Variant I51G+N54R showed nd, nd, nd (controls 1 of 9).
Variant G26D+D30F+S57A showed nd, 4.55, nd (controls 0 of 9).
Variant F27L+T28A+K65N showed nd, nd, nd (controls 0 of 9).
Variant T28S+D62S+D107Q showed 5.15, nd, nd (controls 0 of 9).
Variant A33V+G50W+S55A showed 5.23, 6.35, nd (mean 5.79; controls 5 of 9).
Variant D31P+G50Q+V64N showed nd, nd, 3.58 (controls 1 of 9).
Variant Y32H+Y105T showed 5.03, nd, 4.56 (mean 4.80; controls 6 of 9).
Variant H35S+G102D showed 3.90, 4.42, 4.99 (mean 4.43; controls 4 of 9).
Variant N54D+S57N+Y108K showed 1.15, 1.09, 0.46 (mean 0.90; controls 2 of 9).
Variant G59V+V64H+Y105G showed nd, nd, nd (controls 5 of 9).
Variant N54G showed 1.31, 1.88, 1.51 (mean 1.57; controls 0 of 9).
Variant F27P+T28G+V64P showed nd, nd, nd (controls 0 of 9).
Variant A33D+M34W+V64I showed nd, 4.49, nd (controls 2 of 9).
Variant H35D+G50D+G102S showed nd, nd, nd (controls 0 of 9).
Variant S52R+I58H+G100C showed 4.33, 5.15, 5.64 (mean 5.04; controls 4 of 9).
Variant G26Q+D31S+F106P showed 4.77, 4.53, 5.07 (mean 4.79; controls 4 of 9).
Variant G26T+D31H+G59Q showed nd, 5.55, nd (controls 2 of 9).
Variant A33E+S55M+G100K showed 6.13, nd, nd (controls 4 of 9).
Variant G56P+Y108C showed 4.75, 4.60, nd (mean 4.68; controls 2 of 9).
Variant W53K+V64A+V99N showed nd, nd, nd (controls 2 of 9).
Variant D30T+I58K+Y60F showed nd, nd, nd (controls 0 of 9).
Variant G59A+S63D+Y105R showed nd, nd, nd (controls 1 of 9).
Variant G26A+H35L+I51K showed nd, 5.20, 4.16 (mean 4.68; controls 5 of 9).
Variant F27S+G56K+F106M showed nd, nd, nd (controls 0 of 9).
Variant I51N+S57C showed nd, nd, nd (controls 0 of 9).
Variant F27C+K65Q+G102V showed 4.29, nd, 5.57 (mean 4.93; controls 7 of 9).
Variant A33C+G103S showed nd, nd, nd (controls 2 of 9).
Variant S52V+S57L+S63E showed 4.65, nd, nd (controls 4 of 9).
Variant G102M+G103C+F106W showed 3.73, 5.52, 4.19 (mean 4.48; controls 0 of 9).
Variant Y32M+H35M+K65N showed nd, nd, nd (controls 1 of 9).
Variant T28D+I58V+V64H showed 3.02, 3.22, 2.14 (mean 2.79; controls 1 of 9).
Variant Y32F+S57L+S63G showed nd, nd, nd (controls 0 of 9).

A selection of 6 entries from above:

{"changes": "F27S+G56K+F106M", "log10 Kd (nM) by replicate": "nd, nd, nd", "mean log10 Kd (nM)": "nd", "empty controls": "0 of 9"}
{"changes": "N54D+S57N+Y108K", "log10 Kd (nM) by replicate": "1.15, 1.09, 0.46", "mean log10 Kd (nM)": "0.90", "empty controls": "2 of 9"}
{"changes": "G26T+D31H+G59Q", "log10 Kd (nM) by replicate": "nd, 5.55, nd", "mean log10 Kd (nM)": "5.55", "empty controls": "2 of 9"}
{"changes": "Y32M+S63K+Y108W", "log10 Kd (nM) by replicate": "3.47, 3.42, 3.19", "mean log10 Kd (nM)": "3.36", "empty controls": "6 of 9"}
{"changes": "H35D+G50D+G102S", "log10 Kd (nM) by replicate": "nd, nd, nd", "mean log10 Kd (nM)": "nd", "empty controls": "0 of 9"}
{"changes": "A33C+G103S", "log10 Kd (nM) by replicate": "nd, nd, nd", "mean log10 Kd (nM)": "nd", "empty controls": "2 of 9"}

For reference, the parent read 1.86 as the reference entry and 0.88 as a member of this library.